Data from patent US6958318B2, “Recombinant bacterial cells for delivery of PNP to tumor cells” (The UAB Research Foundation, priority 1993, dated 2005).
“And” between values parts separate entries of the source, which are not always exact repeats. Identical values can stand only once.

By UniProt entry, the sequences of proteins in these tests, tags left out. Where a name states a change or a piece, a line headed by the entry shows the natural chain unless it says otherwise. Residues count along the entry.
UniProt P00491: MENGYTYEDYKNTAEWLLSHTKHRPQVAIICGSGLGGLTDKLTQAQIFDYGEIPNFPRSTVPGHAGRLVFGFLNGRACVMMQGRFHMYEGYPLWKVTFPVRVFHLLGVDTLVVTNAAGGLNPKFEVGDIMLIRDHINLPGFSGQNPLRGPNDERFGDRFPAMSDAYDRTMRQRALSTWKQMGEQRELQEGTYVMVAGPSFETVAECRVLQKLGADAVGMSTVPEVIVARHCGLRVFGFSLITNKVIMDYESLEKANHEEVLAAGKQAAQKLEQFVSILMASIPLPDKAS
UniProt P0ABP8, 2-239 limits assumed: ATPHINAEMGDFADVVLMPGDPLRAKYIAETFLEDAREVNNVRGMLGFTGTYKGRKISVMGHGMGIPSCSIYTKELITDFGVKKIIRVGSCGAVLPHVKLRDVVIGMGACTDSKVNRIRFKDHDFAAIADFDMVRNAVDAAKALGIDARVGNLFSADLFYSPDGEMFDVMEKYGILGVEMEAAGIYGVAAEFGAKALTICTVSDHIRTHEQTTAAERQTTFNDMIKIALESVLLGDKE

What was measured:
human PNP = human PNP (Homo sapiens, UniProt P00491); assay: Cleavage of purine analog nucleosides by human PNP (HPLC); assay type: biochemical; conditions: for Substrate quality for mammalian (human) PNP: in words
E. coli PNP = E. coli PNP (Escherichia coli, UniProt P0ABP8); assay: Cleavage of purine analog nucleosides by E. coli PNP (HPLC); assay type: biochemical; conditions: in words
[1] = tested on: DNA, RNA and protein synthesis; assay: Incorporation of thymidine into DNA, uridine into RNA, leucine into protein

Row | Compound | Substrate quality for mammalian (human) PNP (human PNP) | Percent of substrate cleaved by Human PNP, 100 μM (human PNP; substrate 100 μM, 0.1 unit/ml enzyme, 25° C., 1 hour, stopped by boiling) | Percent of substrate cleaved by Human PNP, 1 mM (human PNP; substrate 1 mM, 25° C., 1 hour, stopped by boiling) | Substrate quality for bacterial (E. coli) PNP (E. coli PNP) | Effect on macromolecular synthesis [1]
1 | 2-F-2′-F-2′-deoxyadenosine | poor substrates | 0(88) Percent and 0(86) Percent | 0(50) Percent and 0(47) Percent | – | –
2 | Nc1nc(Cl)nc2c1ncn2[C@H]1C[C@H](O)[C@@H](CO)O1 | poor substrates | – | – | good substrates | –
3 | Cc1ncnc2nc[nH]c12 [MeP, 6-methylpurine, reference compound] | – | – | – | – | RNA and protein synthesis were affected most
